Measured values reported in patent US8628752B2, “Methods of identifying HSP90 inhibitors with less ocular toxicity” (Synta Pharmaceuticals Corp., priority 2011, dated 2014).

CC(C)c1cc(-c2nnc(S)n2-c2ccc3c(ccn3C)c2)c(O)cc1O [Compound 1, 4-isopropyl-6-(5-mercapto-4-(1-methyl-1H-indol-5-yl)-4H-1,2,4-triazol-3-yl)benzene-1,3-diol]
CSF concentration (SD rats, i.v., Day 2, 6 h, mg/kg: AUY922 10, 17-DMAG 20, Compound 1 50, 17-AAG 80): BQL
Elimination from the retina (in words) (rats): more rapidly eliminated from the retina
